Experimental data published in US7572252B1 (priority 1995, dated 2009).
Some compounds may have been tested in ways that are not shown here. Marks after values point to notes of the source that are not given here.

Columns and labels:
[1] = Transdermal electrotransport fentanyl delivery at three constant DC current densities (Example 2); conditions: for average transdermal fentanyl rate: 5 cm^2, 24 h
[2] = Transdermal electrotransport fentanyl delivery with pulsed current at 1, 10 and 625 Hz (Example 3, Table 1); conditions: 31% duty cycle; for Rate of Fentanyl Delivery After Bolus Treatment: after 30 min DC bolus at 0.1 mA/cm^2; for fentanyl flux: 2 cm^2
[3] = Transdermal electrotransport fentanyl delivery, initial high current density boluses vs baseline current (Example 1)

CCC(=O)N(c1ccccc1)C1CCN(CCc2ccccc2)CC1
average transdermal fentanyl rate ([1]; 10 μA/cm^2 constant DC): 19 µg/h | average transdermal fentanyl rate ([1]; 20 μA/cm^2 constant DC): 73 µg/h | average transdermal fentanyl rate ([1]; 40 μA/cm^2 constant DC): 173 µg/h | increase in drug rate ([1]; current increased four-fold from 50 to 200 μA): almost ten-fold increase | Rate of Fentanyl Delivery Without Bolus Treatment ([2]; 1 Hz, pulse width 320 msec): 48** μg/hr. | Rate of Fentanyl Delivery After Bolus Treatment ([2]; 1 Hz, pulse width 320 msec): 48** μg/hr. | Rate of Fentanyl Delivery Without Bolus Treatment ([2]; 10 Hz, pulse width 31 msec): 52** μg/hr. | Rate of Fentanyl Delivery After Bolus Treatment ([2]; 10 Hz, pulse width 31 msec): 52** μg/hr. | difference in fentanyl flux between 1 and 10 Hz ([2]; 200 μA pulse): No statistically significant difference | Rate of Fentanyl Delivery Without Bolus Treatment ([2]; 625 Hz, pulse width 0.5 msec): 7 µg/h | Rate of Fentanyl Delivery After Bolus Treatment ([2]; 625 Hz, pulse width 0.5 msec): 34 µg/h | fentanyl flux ([2]; pulsing frequencies 1 and 10 Hz, 200 μA pulse): increased fentanyl flux | fentanyl flux ([2]; square-wave frequency 625 Hz, 200 μA pulse): minimal fentanyl flux | mean transdermal fentanyl rate ([3]; four 260 μA/cm2 2.5 min boluses in first hour, then 20 μA/cm2 to 24 h, six volunteers): 113 µg/h | mean transdermal fentanyl rate ([3]; only 20 μA/cm2 baseline current for 24 h, twelve volunteers): 57 µg/h
